Measured values reported in patent US6881414B2, “Mild cosmetic composition with stabilized retinoids” (Unilever Home & Personal Care USA, division of Conopco, Inc., priority 2000, dated 2005).

Biological target: T1, LRAT (Bos taurus, UniProt Q9BGL2)
T1 construct: followed by approximately 15 μg of RPE microsomal protein; tissue W. L. Lawson Co; host or cells: bovine retinal pigment epithelium microsomes
T1 sequence (Q9BGL2 1-230): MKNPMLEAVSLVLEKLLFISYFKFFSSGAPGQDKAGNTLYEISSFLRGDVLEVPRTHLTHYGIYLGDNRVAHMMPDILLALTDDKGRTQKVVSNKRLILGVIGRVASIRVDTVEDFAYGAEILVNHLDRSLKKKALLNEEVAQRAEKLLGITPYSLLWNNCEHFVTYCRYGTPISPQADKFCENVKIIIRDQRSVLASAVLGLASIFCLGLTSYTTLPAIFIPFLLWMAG
Assay: LRAT activity assay, RPE microsomes (to identify B1)
Format: biochemical, bovine
Settings: compound 100 μm

% Inhibition LRAT (100 μm): 25%
SMILES: CC1=CCC(C(C)(C)O)CC1 (stereo not drawn) [Alpha-Terpineol]
